The record followed here is patent US7723091B2 (priority 1999, dated 2010).

Where two headings read alike, the source gives them in different places.

For the data set, the system named is MDCK monolayer cell cultures. As to conditions: 48 hours; for % Toxicity (95% CL) / Toxicity Score: MDCK monolayers.

On to “phosphatidylinositol specific phospholipase C [Recombinant PI-PLC]”, for which the “concentration at which significant toxicity was observed” value (MDCK cells) was at least 3 U/mL. The “concentration range with no significant toxicity” value (MDCK cells) is 0.1-1 U/mL. The “% Toxicity (95% CL)” value is, setting by setting: (0.1 U/mL) 10%; (0.3 U/mL) 11%; (1 U/mL) 13%; (3 U/mL) 57%; (10 U/mL) 83%. Moreover, the “Toxicity Score” value runs as follows: (0.1 U/mL) 1 (6-25%); (0.3 U/mL) 1 (6-25%); (1 U/mL) 1 (6-25%); (3 U/mL) 3 (51-75%); (10 U/mL) 4 (76-100%).
